# Apparent affinities of Ab-14 variants for a coronavirus HR2 peptide

From the AlphaSeq antibody data of Li et al. 2023 (doi:10.1038/s41467-023-39022-2), copy in the FLAb collection.

Binding partner: SARS-CoV-2 spike HR2 peptide, sequence PDVDLGDISGINAS.

Each scFv is VH, a 15-residue (Gly4Ser)3 linker, VL, as in the parent Ab-14, and differs from it in the CDRs of the heavy chain only.
VH: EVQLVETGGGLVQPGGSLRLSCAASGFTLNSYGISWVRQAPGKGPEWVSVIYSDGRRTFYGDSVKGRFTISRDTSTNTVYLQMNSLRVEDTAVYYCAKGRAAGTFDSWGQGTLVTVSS
VL: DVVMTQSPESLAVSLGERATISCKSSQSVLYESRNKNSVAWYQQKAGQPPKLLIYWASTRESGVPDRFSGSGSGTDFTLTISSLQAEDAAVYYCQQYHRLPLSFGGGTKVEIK

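Phage display of a naive human antibody library on the peptide gave the parent. Designed CDR sequences, proposed from the first random library and measured here. Their group label is 14H_GP_Gibbs (GP: Gaussian process model; Gibbs: Gibbs sampling; a sequence that several methods proposed may carry one label only). Affinity was read by AlphaSeq, a pooled yeast mating assay with surface-displayed partners. The frequency of each diploid, read from paired DNA barcodes, reflects how well the two displayed proteins bind. A regression on co-assayed BCL2-family reference pairs converts the normalised counts of each replicate to an apparent Kd. There are six technical replicates.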

Substitutions are numbered in sequence along the VH above, starting at 1 (not Kabat). Affinities are written as log10 Kd with Kd in nM; a lower number is a better binder. An entry "nd" has no value in the source: the pair was not observed among the diploids in that replicate. This suggests poor binding but is not conclusive. The authors' rule: three or more of the six replicates give a measured affinity, fewer mean a poor binder. A sequence measured in both rounds can read differently, since the two assays cover different ranges. Three control strains display no target. For all heavy chain designs, 1% of the pairings with them gave a signal, with a median of 2.08 and one signal in twenty below 0.84, so weak values seen in few replicates may be background. The control count says in how many pairings with the empty strains this scFv gave a signal. Of ten entries with the parent sequence, four were seen in most replicates (averages 0.34 to 2.37), three in one and three in none, so single entries are noisy.

Variant T28G/S31E/G61H/R100K/S107T gave 3.02, 1.19, -0.26, -0.10, 0.43, 0.70 (controls 0 of 18).
Variant T28S/G61T/R100E/S107A gave 0.18, -0.03, 0.07, 0.11, -0.05, 0.16 (controls 1 of 18).
Variant T28V/S31A/G61A/R100E gave 2.22, 1.86, 1.84, 1.25, 1.17, 1.71 (controls 1 of 18).
Variant G26K/T28S/G61A/R100Q/S107T gave nd, 2.90, nd, 2.86, 2.16, 4.51 (controls 1 of 18).
Variant T28S/G61K/R100N/A101E gave -0.08, -0.77, -0.20, 0.14, -0.47, 0.00 (controls 0 of 18).
Variant T28D/R56Q/R100N gave 0.65, 0.66, 0.84, 0.18, 0.45, 0.62 (controls 0 of 18).
Variant T28G/S63A/A101T gave 1.54, 1.04, 0.92, 0.44, 1.06, 0.80 (controls 0 of 18).
Variant T28G/G61I/R100Q/A101E gave 1.22, 0.89, 1.47, 0.19, 0.44, 1.67 (controls 0 of 18).
Variant T28N/S63A/A101N gave 1.34, 0.17, 1.34, nd, nd, 0.94 (controls 1 of 18).
Variant T28E/R100V/A101L/S107T gave 0.13, 0.01, 0.08, 0.00, -0.36, 0.46 (controls 0 of 18).
Variant T28D/G61V/R100Q/A102V/S107T gave nd, 1.13, nd, 0.96, 1.76, nd (controls 0 of 18).
Variant G61V/S63D/R100Q/A101E/S107T gave 0.27, 0.80, nd, 0.14, 0.84, 0.53 (controls 0 of 18).
Variant T28S/G61K/S63D/A101T gave 1.83, 1.81, 1.06, 1.73, 1.07, 1.34 (controls 0 of 18).
Variant N30E/R56M/G61A/A101T gave 0.55, 0.73, 1.25, 0.18, 0.91, 0.88 (controls 0 of 18).
Variant T28Q/N30E/G61H gave 0.93, nd, 0.70, 1.79, 1.51, 1.00 (controls 0 of 18).
Variant T28D/R56K/A101Q/S107V gave 0.37, 0.33, 0.12, 0.14, 0.52, 0.46 (controls 0 of 18).
Variant T28Q/G61Q/A101N gave nd, 1.69, 0.37, 1.63, nd, nd (controls 0 of 18).
Variant T28S/G61A/S63D/R100V/A101N gave 0.10, -0.10, 0.05, -0.16, -0.12, 0.04 (controls 2 of 18).
Variant T28S/G61V/R100Q/A101T/S107A gave 1.34, 0.35, 1.48, 0.14, 0.07, 1.95 (controls 0 of 18).
Variant N30E/G61K/A101T gave 1.43, 0.84, 0.41, 0.81, 0.92, 1.34 (controls 3 of 18).
Variant T28W/S31E/A101T/S107Y gave nd, nd, 1.09, nd, nd, nd (controls 1 of 18).
Variant G26Y/T28Q/S31E/A101T/S107T gave nd, nd, nd, nd, nd, 2.39 (controls 0 of 18).
Variant T28N/G61V/S63D/A101T gave -0.01, 0.17, 0.48, -0.22, 0.23, 0.20 (controls 0 of 18).
Variant G26K/T28Q/S53A/R100Q gave 0.66, 2.66, 1.22, 1.29, 2.30, 3.09 (controls 0 of 18).
Variant T28D/S63N/A101T/S107D gave 0.22, 0.17, 0.23, 0.23, -0.08, 0.05 (controls 0 of 18).
Variant T28D/G61Q/A101T/S107Y gave 0.20, 0.19, 0.13, 0.19, 0.57, 0.24 (controls 0 of 18).
Variant T28S/S31D/G61H/S63E/A101T gave 1.42, nd, 1.42, nd, 1.45, 0.92 (controls 0 of 18).
Variant T28N/G61A/R100H/S107T gave 0.83, 0.76, 1.50, 1.39, 1.37, 1.39 (controls 0 of 18).
Variant G61I/S63D/R100Q/S107K gave 1.69, 2.54, 1.52, 1.03, 2.44, 2.37 (controls 0 of 18).
Variant T28D/G61A/S63W/R100N gave 1.30, nd, 1.58, 0.91, 1.47, 1.06 (controls 0 of 18).
Variant T28D/G61L/A101T/S107T gave 1.17, 0.82, 0.86, 0.99, 1.69, 1.39 (controls 1 of 18).
Variant T28S/S31D/R56Q/G61V/A101T gave 0.09, -0.20, -0.25, -0.64, 0.04, 0.57 (controls 0 of 18).
Variant G26K/T28D/A101T/S107K gave 2.05, 1.84, 1.30, 1.74, 3.07, 1.43 (controls 3 of 18).
Variant T28S/G61S/S63R/A101E gave 0.26, 0.22, -0.57, 0.16, -0.12, 0.48 (controls 0 of 18).
Variant T28S/G61T/S63K/R100E gave 1.00, 0.73, 0.65, 1.17, 0.85, 1.25 (controls 0 of 18).
Variant G26H/T28S/G61H/R100Q/A101T gave 0.55, -0.32, 0.20, 0.14, 0.13, 0.10 (controls 0 of 18).
Variant T28N/S63R/A101E gave nd, 1.37, 1.73, 2.07, 0.82, 1.98 (controls 0 of 18).
Variant T28E/G61M/R100Q/A101T/S107A gave 0.71, 0.59, 0.82, 3.09, 0.54, 0.70 (controls 0 of 18).
Variant T28D/S63M/A101N gave 0.89, 0.69, 0.65, 0.29, 0.26, 0.96 (controls 0 of 18).
Variant T28Q/S31E/G61A/S63Q/R100T gave 0.32, -0.06, 0.81, -0.36, -0.40, 0.47 (controls 0 of 18).
Variant T28D/S63K/R100K/S107L gave 0.50, 0.52, 0.90, 0.70, 0.46, 0.78 (controls 0 of 18).
Variant T28V/S31D/G61I/A101T gave nd, 1.12, nd, nd, 2.74, nd (controls 0 of 18).
Variant T28D/R56K/R100H gave 0.73, -0.05, 0.37, 0.15, 0.19, 0.71 (controls 1 of 18).

The 3 strongest on average among those seen in every replicate, once more:

For T28S/G61K/R100N/A101E, the assay gave -0.08, -0.77, -0.20, 0.14, -0.47, 0.00 (controls 0 of 18).
For T28S/S31D/R56Q/G61V/A101T, the assay gave 0.09, -0.20, -0.25, -0.64, 0.04, 0.57 (controls 0 of 18).
For T28S/G61A/S63D/R100V/A101N, the assay gave 0.10, -0.10, 0.05, -0.16, -0.12, 0.04 (controls 2 of 18).